scFv variants of Ab-91 (heavy chain) against a SARS-CoV-2 spike peptide

From the AlphaSeq antibody data of Engelhart et al. 2022 (doi:10.1038/s41597-022-01779-4), copy in the FLAb collection.

Target: peptide PDVDLGDISGINAS, taken from heptad repeat 2 (HR2) of SARS-CoV-2 spike.

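The starting antibody came from a phage panning campaign against this peptide. AAYL51 was designed without a model: most single CDR substitutions and a random sample of double and triple ones. The scFvs were displayed on barcoded MATa yeast, the peptide on MATalpha yeast. Mating (16 h, 30 °C) was followed by selection of diploids and sequencing of their barcodes. A regression on co-assayed BCL2-family reference pairs converts the normalised counts of each replicate to an apparent Kd. There are three technical replicates.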

Parent: Ab-91, a human scFv built as VL, a 15-residue (Gly4Ser)3 linker, VH. Only the CDRs of the heavy chain vary.
VL: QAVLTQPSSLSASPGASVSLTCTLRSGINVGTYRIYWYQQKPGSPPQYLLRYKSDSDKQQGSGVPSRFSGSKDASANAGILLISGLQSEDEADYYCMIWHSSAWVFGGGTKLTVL
VH: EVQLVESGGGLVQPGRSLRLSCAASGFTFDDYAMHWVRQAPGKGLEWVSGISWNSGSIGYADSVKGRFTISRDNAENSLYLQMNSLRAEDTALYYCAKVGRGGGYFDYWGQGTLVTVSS

Changes read parent residue, position, new residue, counted from the first residue of the VH shown.
Affinities are written as log10 Kd with Kd in nM; a lower number is a better binder.
"ND" means that the variant was in the library but no mating with the target was seen in that replicate; the authors take this as a sign of poor binding, and no number exists.
Three control strains display no target. For library AAYL51, 21% of the pairings with them gave a signal, with a median of 4.54 and one signal in twenty below 3.26, so weak values seen in few replicates may be background. For each scFv, signals with the empty controls are counted beside the result.

The variant G26Y F29N S55H gave 2.94, ND, 3.71 (controls 2 of 9).
The variant T28V D31Y Y105Q gave 2.25, 2.23, 1.94 (controls 4 of 9).
The variant I51W K65Q G103P gave 4.88, ND, ND (controls 1 of 9).
The variant M34G S63W G103D gave 4.68, 5.06, ND (controls 3 of 9).
The variant A33W S57Q D62R gave 4.03, ND, ND (controls 4 of 9).
The variant T28F D30K F106Q gave 1.74, 1.92, 1.17 (controls 1 of 9).
The variant D30M V99R G104C gave ND, 6.29, 3.89 (controls 5 of 9).
The variant I51H I58M V64Y gave ND, ND, ND (controls 0 of 9).
The variant W53P Y105G F106L gave 1.23, 1.19, 0.61 (controls 3 of 9).
The variant W53H I58V K65S gave 2.59, 2.49, 2.16 (controls 2 of 9).
The variant W53T gave ND, 6.26, ND (controls 1 of 9).
The variant T28N A33I Y60R gave ND, 5.39, 5.11 (controls 3 of 9).
The variant A33N G56F gave ND, 4.97, ND (controls 1 of 9).
The variant M34S G103C Y108Q gave ND, ND, ND (controls 0 of 9).
The variant S52G S55I K65L gave ND, ND, ND (controls 0 of 9).
The variant V99H G100W R101Q gave 6.44, 5.93, 4.54 (controls 4 of 9).
The variant M34R G56I Y105W gave ND, ND, ND (controls 1 of 9).
The variant T28E A33L D107H gave ND, 4.71, 4.98 (controls 3 of 9).
The variant D30C Y60P G100S gave ND, ND, ND (controls 1 of 9).
The variant S52R G59P K65D gave 3.91, ND, ND (controls 2 of 9).
The variant M34F I51K A61F gave ND, ND, ND (controls 2 of 9).
The variant S52C W53Q G102R gave 4.26, 4.42, ND (controls 7 of 9).
The variant I51K S52N R101W gave ND, ND, 4.85 (controls 2 of 9).
The variant V99Y gave ND, ND, 3.91 (controls 1 of 9).
The variant S52K G59D Y105D gave 4.53, ND, ND (controls 1 of 9).
The variant G26S M34H Y108V gave ND, ND, ND (controls 2 of 9).
The variant F29C I58N gave 5.35, ND, ND (controls 0 of 9).
The variant F27T D31N A61L gave ND, ND, ND (controls 1 of 9).
The variant T28M F29P S55L gave ND, ND, ND (controls 0 of 9).
The variant T28G D30Q Y60H gave ND, ND, ND (controls 0 of 9).
The variant Y60F V64L G104A gave 2.62, ND, ND (controls 0 of 9).
The variant G56A A61F R101A gave ND, ND, ND (controls 0 of 9).
The variant A61K S63R D107T gave ND, ND, ND (controls 1 of 9).
The variant G50I N54A G59W gave ND, ND, ND (controls 0 of 9).
The variant D31Y M34K S52M gave ND, 5.36, 4.33 (controls 1 of 9).
The variant T28W I58Q Y60E gave 5.31, ND, ND (controls 1 of 9).

For reference, 4 entries of the list once more:

| changes | replicates, log10 nM | empty controls |
|---|---|---|
| W53T | ND, 6.26, ND | 1 of 9 |
| T28V D31Y Y105Q | 2.25, 2.23, 1.94 | 4 of 9 |
| T28E A33L D107H | ND, 4.71, 4.98 | 3 of 9 |
| D31Y M34K S52M | ND, 5.36, 4.33 | 1 of 9 |